Values quoted from earlier work as cited in patent US20020147170A1 (priority 2000, published 2002).

Target: AT1A angiotensin II receptor (Rattus norvegicus, UniProt P25095, N111A)
Details: basal inositol phosphate production; cited from earlier work

B1: Asn at position 111 to Ala: AT1A angiotensin II receptor with Asn 111 mutated to Ala (protein, UniProt P25095 1-359, looked up, variant N111A)
Type-1 angiotensin II …: MALNSSAEDGIKRIQDDCPKAGRHSYIFVMIPTLYSIIFVVGIFGNSLVVIVIYFYMKLKTVASVFLLNLALADLCFLLTLPLWAVYTAMEYRWPFGNHLCKIASASVSFALYASVFLLTCLSIDRYLAIVHPMKSRLRRTMLVAKVTCIIIWLMAGLASLPAVIHRNVYFIENTNITVCAFHYESRNSTLPIGLGLTKNILGFLFPFLIILTSYTLIWKALKKAYEIQKNKPRNDDIFRIIMAIVLFFFFSWVPHQIFTFLDVLIQLGVIHDCKISDIVDTAMPITICIAYFNNCLNPLFYGFLGKKFKKYFLQLLKYIPPKAKSHSSLSTKMSTLSYRPSDNMSSSAKKPASCFEVE
Q: For B1, which constitutive activity is on record?
A: strong constitutive activity
